The numbers were not newly measured in article PMC8764113, “Identification of a diarylpentanoid-producing polyketide synthase revealing an unusual biosynthetic pathway of 2-(2-phenylethyl)chromones in agarwood” (Nature Communications, 2022), which cites them from elsewhere.

SMILES strings stand for the structures.

This series relates to 5-HT2B receptor. The note with it: cited from earlier work.

As to `O=c1cc(CCc2ccccc2)oc2cccc(O)c12` [5-HPEC, 5-hydroxy-2-(2-phenylethyl)chromone], the 5-HT2B receptor activity result was “selective antagonist”.
